A short description of the data set: Toxicology of L2-mIgG2a combined with chemotherapy. To be noted: tumor-bearing nude mice; for Food consumption: 5-FU 100 mg/kg or IRT 80 mg/kg once per week, without or with 20 mg/kg L2 3× per week; for Food consumption / ALT / Albumin / BUN / Hemoglobin / Organ weight, Brain / Organ weight, Heart / Organ weight, Kidney / Organ weight, Liver / Organ weight, Lung / Organ weight, Spleen / RBC / Total Protein / WBC: Mean ± SD; for Creatine / Total Bilirubin / ALT / Albumin / BUN / Hemoglobin / Organ weight, Brain / Organ weight, Heart / Organ weight, Kidney / Organ weight, Liver / Organ weight, Lung / Organ weight, Spleen / RBC / Total Protein / WBC: 5-FU or IRT schedule without or with 20 mg/kg L2 3× per week.

SMILES strings stand for the structures.

Experimental findings from patent US9181340B2, “TEM8 antibodies, conjugates thereof, and their use” (The United States of America, as represented by the …, priority 2011, dated 2015) are described below.

As to `O=c1[nH]cc(F)c(=O)[nH]1` [Antibody 5-FU, 5-fluorouracil], the Food consumption was 29.7 ± 1.9 g/wk, the Creatine result was “≦0.2 mg/dL”, the “Total Bilirubin” value is “≦0.3 mg/dL” and the ALT amounted to 59.2 ± 62.6 U/L. The Albumin is on record as 2.7 ± 0.5 g/dL; the BUN is 19.4 ± 1.5 mg/dL; the Hemoglobin is 12.4 ± 0.4 g/dL; the “Organ weight, Brain” value is 460 ± 23 mg. Moreover, the “Organ weight, Heart” value was 126 ± 5 mg; the “Organ weight, Kidney” value is on record as 398 ± 27 mg; the “Organ weight, Liver” value stood at 1412 ± 88 mg; the “Organ weight, Lung” value turned out to be 168 ± 15 mg. Moreover, the “Organ weight, Spleen” value is recorded as 170 ± 37 mg; the RBC is 8.6 ± 0.4 M/μL; the “Total Protein” value came to 6.0 ± 0.6 g/dL; the WBC was 9.4 ± 4.4 K/μL.
As for `CCc1c2c(nc3ccc(OC(=O)N4CCC(N5CCCCC5)CC4)cc13)-c1cc3c(c(=O)n1C2)COC(=O)[C@]3(O)CC` [IRT, irinotecan], the Food consumption is recorded as 31.9 ± 2.7 g/wk, the Creatine entry is on record as “≦0.2 mg/dL”, the “Total Bilirubin” value is “≦0.3 mg/dL” and the ALT worked out at 48.6 ± 25.7 U/L. The Albumin was found to be 3.7 ± 0.4 g/dL; the BUN is 20.6 ± 2.7 mg/dL; the Hemoglobin amounted to 12.3 ± 1.7 g/dL; the “Organ weight, Brain” value turned out to be 464 ± 26 mg. The “Organ weight, Heart” value was determined as 134 ± 13 mg; the “Organ weight, Kidney” value came out at 354 ± 53 mg; the “Organ weight, Liver” value was found to be 1334 ± 226 mg; the “Organ weight, Lung” value was 166 ± 31 mg. In addition, the “Organ weight, Spleen” value came out at 134 ± 34 mg; the RBC is reported as 8.1 ± 1.1 M/μL; the “Total Protein” value is 5.8 ± 0.3 g/dL; the WBC came to 4.0 ± 0.9 K/μL.
